In patent US11584712B2, “Alkylamine-substituted perthiocarbamates as dual precursors to hydropersulfide and carbonyl sulfide” (The Johns Hopkins University, priority 2020, dated 2023):

Tested on: H9c2 cells
Assay: H9c2 cell protection from H2O2-mediated oxidative stress, Cell Counting Kit-8 (CCK-8)
Type: cell-based, rat
Conditions: 2 h pretreatment (7b 50, 100, 150 μM; byproduct 150 μM), then H2O2 200 μM 2 h

CN1CCN(C)C1=O [byproduct 2a, 1,3-dimethyl-2-imidazolidinone]
protection against H2O2-mediated toxicity (CCK-8 viability): no protective effect
